This assay concerns the target cAMP and cAMP-inhibited cGMP 3',5'-cyclic phosphodiesterase 10A (Homo sapiens, UniProt Q9Y233).

Chains of the proteins cited; added tags and fusions are not shown. Lines headed by an entry give the natural chain unless they say otherwise; changes in a name come on top.
UniProt Q9Y233: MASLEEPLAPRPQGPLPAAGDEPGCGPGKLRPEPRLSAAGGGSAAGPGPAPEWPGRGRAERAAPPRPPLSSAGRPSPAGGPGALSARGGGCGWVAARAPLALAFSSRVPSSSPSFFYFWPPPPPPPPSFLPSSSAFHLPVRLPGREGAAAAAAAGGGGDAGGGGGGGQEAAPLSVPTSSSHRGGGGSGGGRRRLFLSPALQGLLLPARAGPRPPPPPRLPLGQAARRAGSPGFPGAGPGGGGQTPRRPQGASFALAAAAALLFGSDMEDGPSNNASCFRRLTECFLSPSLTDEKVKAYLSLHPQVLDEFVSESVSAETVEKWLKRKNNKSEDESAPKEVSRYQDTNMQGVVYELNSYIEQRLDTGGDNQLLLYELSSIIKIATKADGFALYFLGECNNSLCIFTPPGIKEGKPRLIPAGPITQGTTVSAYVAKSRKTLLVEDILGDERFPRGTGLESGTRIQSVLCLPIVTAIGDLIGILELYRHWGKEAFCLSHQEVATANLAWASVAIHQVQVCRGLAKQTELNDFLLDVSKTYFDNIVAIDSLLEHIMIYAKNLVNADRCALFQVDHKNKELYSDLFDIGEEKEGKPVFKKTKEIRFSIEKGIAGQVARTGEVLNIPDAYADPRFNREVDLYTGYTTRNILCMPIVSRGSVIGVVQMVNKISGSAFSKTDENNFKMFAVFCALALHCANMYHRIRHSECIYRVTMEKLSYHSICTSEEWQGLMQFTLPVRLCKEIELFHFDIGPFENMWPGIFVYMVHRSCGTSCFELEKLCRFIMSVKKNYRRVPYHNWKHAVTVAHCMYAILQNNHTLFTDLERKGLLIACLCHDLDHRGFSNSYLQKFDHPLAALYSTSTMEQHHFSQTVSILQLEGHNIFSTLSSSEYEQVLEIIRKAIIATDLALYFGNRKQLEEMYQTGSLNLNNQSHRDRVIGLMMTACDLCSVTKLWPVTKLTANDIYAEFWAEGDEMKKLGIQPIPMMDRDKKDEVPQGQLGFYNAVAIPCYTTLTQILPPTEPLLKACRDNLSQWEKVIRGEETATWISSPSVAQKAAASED

Data on one molecule can be found in ChEMBL document CHEMBL6182862, “Discovery of novel azetidine-based imidazopyridines as selective and orally bioavailable inhibitors of phosphodiesterase 10A for the treatment of pulmonary arterial hypertension” (Eur J Med Chem, 2025).

As a reminder, the IC50 is the concentration at which inhibition is half-maximal. Higher therefore signals a need for much substance.

With `COc1ccc(Cc2nccc3cc(OC)c(OC)cc23)cc1OC` [PAPAVERINE], the IC50 came to 0.049 µM. This counts as double-digit nanomolar.
